From US4649911A, “Small particle aerosol generator for treatment of respiratory disease including the lungs” (Baylor College of Medicine, priority 1986, dated 1987)
Where two headings read alike, the source gives them in different places.

Details: for total white blood cell count: both treated and control

## NC(=O)c1ncn([C@@H]2O[C@H](CO)[C@@H](O)[C@H]2O)n1 [ribavirin]
All three time periods, treated and control
  other clinical chemical tests, sporadic slight elevations: not considered to indicate drug toxicity
At admission (before treatment)
  direct bilirubin, one patient: 1.0 mg/dL
At admission
  total white blood cell count: about 6,000
At discharge
  direct bilirubin, one patient: 0.5 mg/dL
  total white blood cell count: about 4500
At one month
  direct bilirubin, one patient: normal
Treated and control, consistent with drop in white count
  absolute polymorphonuclear count: major reduction
Treated versus control, admission or discharge
  hematocrit, hemoglobin, and red cell count: no significant changes
treated, at admission (before treatment), controls 0.12 mg/dl, P=0.03
  direct bilirubin, mean: 0.24 mg/dL
treated, at discharge, control 81 units/ml, P=0.04, due to 5 patients already elevated before treatment
  creatine phosphokinase, mean: 284 units/ml
treated, at followup, 4 control also
  patients with abnormally high CPK values: 4
